Values of other authors, collected in patent publication US20220242874A1, “CAMPTOTHECIN DERIVATIVES” (SUN PHARMA ADVANCED RESEARCH COMPANY LIMITED, priority 2019, published 2022).
Counter-ions that a name gives are not always drawn.

Tested on: carboxylesterases present in liver and cancer cells
Conditions: by carboxylesterases present in liver and cancer cells; cited from earlier work

**Q.** For `CCc1c2c(nc3ccc(OC(=O)N4CCC(N5CCCCC5)CC4)cc13)-c1cc3c(c(=O)n1C2)COC(=O)[C@]3(O)CC` [Irinotecan, irinotecan hydrochloride], which “share of the pro-drug converted to SN-38” value is on record?
**A.** 2-8%
